This experiment deals with P-gp (Homo sapiens, UniProt P08183). As to the kind of experiment: cell-based.

Sequences of proteins named here, by UniProt entry; tags and fusion partners are left off.
UniProt P08183, whole entry: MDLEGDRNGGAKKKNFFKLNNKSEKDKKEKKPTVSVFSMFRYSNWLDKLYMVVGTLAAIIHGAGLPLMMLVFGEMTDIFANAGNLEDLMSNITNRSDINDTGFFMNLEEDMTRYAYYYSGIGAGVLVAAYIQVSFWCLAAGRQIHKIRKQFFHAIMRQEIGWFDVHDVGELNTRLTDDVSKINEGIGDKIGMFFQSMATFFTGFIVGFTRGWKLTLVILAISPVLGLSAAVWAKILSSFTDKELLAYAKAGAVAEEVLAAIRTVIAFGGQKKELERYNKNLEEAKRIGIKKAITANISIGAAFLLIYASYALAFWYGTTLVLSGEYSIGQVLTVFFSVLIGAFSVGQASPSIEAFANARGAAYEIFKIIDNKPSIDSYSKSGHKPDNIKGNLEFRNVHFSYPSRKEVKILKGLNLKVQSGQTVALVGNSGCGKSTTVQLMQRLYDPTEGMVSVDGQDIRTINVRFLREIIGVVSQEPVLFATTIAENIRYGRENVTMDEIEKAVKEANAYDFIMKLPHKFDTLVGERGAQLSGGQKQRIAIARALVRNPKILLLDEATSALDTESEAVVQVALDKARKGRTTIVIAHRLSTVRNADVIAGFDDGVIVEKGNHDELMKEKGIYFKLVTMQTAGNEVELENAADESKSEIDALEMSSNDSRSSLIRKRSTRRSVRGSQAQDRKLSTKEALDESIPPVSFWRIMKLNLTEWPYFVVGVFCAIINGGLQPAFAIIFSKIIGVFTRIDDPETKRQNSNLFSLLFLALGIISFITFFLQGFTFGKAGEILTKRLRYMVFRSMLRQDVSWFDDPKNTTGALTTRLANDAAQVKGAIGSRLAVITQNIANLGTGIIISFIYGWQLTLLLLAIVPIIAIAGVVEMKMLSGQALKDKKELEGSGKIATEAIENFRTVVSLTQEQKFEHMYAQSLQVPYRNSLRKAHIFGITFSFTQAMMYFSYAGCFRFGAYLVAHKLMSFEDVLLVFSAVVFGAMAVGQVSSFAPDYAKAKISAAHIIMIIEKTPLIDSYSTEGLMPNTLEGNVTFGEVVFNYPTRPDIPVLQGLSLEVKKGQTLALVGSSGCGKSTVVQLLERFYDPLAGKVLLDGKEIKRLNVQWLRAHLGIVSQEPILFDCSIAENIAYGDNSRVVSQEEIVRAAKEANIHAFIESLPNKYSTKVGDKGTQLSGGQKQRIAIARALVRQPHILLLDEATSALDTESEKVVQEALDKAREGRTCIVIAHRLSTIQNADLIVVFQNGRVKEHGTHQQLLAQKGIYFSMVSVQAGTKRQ

Take `COC(=O)C1=C(C)NC(C)=C(C(=O)OCCN(C)Cc2ccccc2)C1c1cccc([N+](=O)[O-])c1` (stereo not shown) [Nicardipine, nicardipine]: 19.4 ± 1.5 µM corresponded to half-maximal inhibition (IC50).

What is called IC50 is the concentration that inhibits the measured activity by half.

Source of the values: paper PMC4932475, “Evaluation of P-Glycoprotein Inhibitory Potential Using a Rhodamine 123 Accumulation Assay” (Pharmaceutics, 2016).
